Chains of the proteins cited; added tags and fusions are not shown.
Melanocortin receptor 4 (Homo sapiens), P32245, UniProt P32245, whole entry, looked up: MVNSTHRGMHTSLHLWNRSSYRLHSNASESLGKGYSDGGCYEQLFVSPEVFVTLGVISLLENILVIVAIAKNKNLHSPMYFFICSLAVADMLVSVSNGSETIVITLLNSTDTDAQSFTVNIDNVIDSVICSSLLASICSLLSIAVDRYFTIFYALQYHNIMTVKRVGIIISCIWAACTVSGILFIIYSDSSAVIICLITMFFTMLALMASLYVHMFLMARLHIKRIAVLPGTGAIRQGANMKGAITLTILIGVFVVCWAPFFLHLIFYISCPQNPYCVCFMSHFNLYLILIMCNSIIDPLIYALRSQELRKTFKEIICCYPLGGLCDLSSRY

# From PubChem BioAssay
# Compounds with a hit are over-represented: about 4.2% of the library has one in this group of screens.
# UUG fidelity – modulators of start codon recognition fidelity in yeast; AID 602363; activity score, % at 18.7 µM; S. cerevisiae UUG-firefly luciferase reporter, luminescence/redox ratio; 0.13% of 350,000 active;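 active = replicate mean at a twofold rise or more, about +100% in these data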;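 note: firefly luciferase made from a UUG start codon reports start codon fidelity; reporter light over untreated wells divided by growth signal over untreated wells; some hits fall short of that in this replicate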
# MC4R barr agon – MC4R agonists recruiting beta-arrestin, primary screen, cell-based, luminescence, agonist arm of biased-ligand search | actives 0.98% (n = 360,000) | Melanocortin receptor 4 (Homo sapiens), P32245 | U2OS MC4R beta-arrestin complementation; percent of melanotan II response, DMSO zero | activation, % at 8.9 µM | AID 540308, 2011;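 active = activation above a per-plate cutoff, the mean activation of sample wells on that plate plus 3 SD, cut at about 8% in these data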
# NALP1 inh – NALP1 inflammasome inhibitors in reconstituted yeast, colorimetric, S. cerevisiae, triplicate retest; S. cerevisiae NALP1/ASC/caspase-1 growth, X-gal OD620, 72 h; inhibition, % at 10 µM; actives 0.61% (n = 280,000); AID 2071, 2009; in the data active = inhibition mostly above about 24%, no sharp cut-off; inactive = mostly below about 32%
# MC4R antag cAMP – MC4R antagonists of cAMP signaling, primary screen, cell-based, TR-FRET, antagonist arm of biased-ligand search; Melanocortin receptor 4 (Homo sapiens), P32245; MC4R-expressing cells, MTII-stimulated cAMP, LANCE TR-FRET; inhibition, % at 6.5 µM; actives 0.48% (n = 360,000); AID 540295, 2011;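 active = inhibition above its plate's cutoff, the mean of tested wells on that plate plus 3 SD, cut at about 29% in these data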;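 note: 0% = Melanotan II alone and 100% = Melanotan II plus saturating MCL0020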
#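 Assay system: U2OS-MC4R stable cell line; Also added: Melanotan II; Technique: Eu-cAMP/anti-cAMP TR-FRET, emission 671 nm; Times: 30-min compound, 1-h challenge, 1-h detection, room temperature.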
# HDAC3 inhib – HDAC3 deacetylase inhibitors, primary screen, biochemical, fluorescence, cell-free homogeneous. Histone deacetylase 3 (Homo sapiens), O15379. recombinant HDAC3, fluorogenic peptide/trypsin coupled. inhibition, % at 8.3 µM. actives 0.15% (n = 320,000). AID 2718, 2010; in the data active = inhibition above about 26%, passing the limit was not always enough; inconclusive = no clear call, values can overlap the other calls
# ALR H2O2 inh – human ALR oxidase inhibition via reduced H2O2 | 290,000 compounds, 3.8% hits | inhibition, % (no concentration beside the values) | P55789 | purified ALR, DTT oxidation, H2O2 HRP-luminol luminescence;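 active means mean and each replicate at 75% or more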;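 further: stock transfer was 7.5 nL into about 7.5 µL; 0% = neutral wells and 100% = wells with inactivated enzyme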
# * marks the source's active call; other numbers are inactive results; ? = inconclusive; · = not tested or not shown.
# Letter code – A = UUG fidelity; B = MC4R barr agon; C = NALP1 inh; D = MC4R antag cAMP; E = HDAC3 inhib; F = ALR H2O2 inh
(1) COc1cc2c(cc1OC)CN(c1ccc([N+](=O)[O-])cc1C#N)CC2
  A: ·; B: 0; C: 14; D: 4; E: 0; F: 87*
(2) COc1cc2c(cc1OC)CN(c1ccc([N+](=O)[O-])cc1Cl)CC2
  A: -2; B: -3; C: 12; D: 18; E: 9; F: ·
(3) CCN1CCN(C(=O)c2ccc3c(c2)N(Cc2ccc(C)cc2)CCS3)CC1
  A: 1; B: 2; C: 22; D: 6; E: -14; F: 99*
(4) CCOC(=O)N1CCN(C(=O)c2ccc3c(c2)N(Cc2ccccc2)CCS3)CC1
  A: 14; B: 3; C: 6; D: 9; E: -6; F: 98*
(5) Cc1ccc(CN2CCSc3ccc(C(=O)N4CCOCC4)cc32)cc1
  A: -22; B: -1; C: 6; D: -5; E: -9; F: 99*
(6) COc1cccc(S(=O)(=O)N[C@@H]2CC[C@H](CCNC(=O)Cc3ccncc3)O[C@H]2CO)c1
  A: -5; B: ·; C: ·; D: ·; E: ·; F: ·
(7) Cc1ccc(S(=O)(=O)N(C)C[C@H]2OCCCC[C@H](C)Oc3ccc(NS(=O)(=O)c4c(C)noc4C)cc3C(=O)N([C@@H](C)CO)C[C@@H]2C)cc1
  A: -7; B: ·; C: ·; D: ·; E: ·; F: ·
(8) CC(C)(C)c1csc(NC(=O)c2ccccc2O)n1
  A: -12; B: 0; C: 14; D: 16; E: -6; F: 81*
(9) CC(C)(C)c1csc(NC(=O)c2c(F)c(F)c(F)c(F)c2F)n1
  A: -14; B: -1; C: ·; D: 14; E: ?; F: 98*
(10) Cc1csc(NC(=O)c2ccccc2O)n1
  A: -5; B: 2; C: 26; D: -2; E: -22; F: -45
(11) CC(C)NC(=O)Nc1ccc2c(c1)C(=O)N(C)[C@@H]1CC[C@H](CC(=O)Nc3ccccc3)O[C@H]1CO2
  A: 1; B: ·; C: ·; D: ·; E: ·; F: ·
(12) CN1C(=O)CC(NNC(=O)c2ccc(Cl)cc2)C1=O (stereo not given)
  A: -12; B: 0; C: 3; D: -5; E: -2; F: 90*
(13) CC(=O)Oc1ccc(C(c2ccc(OC(C)=O)cc2)c2ccccn2)cc1
  A: -8; B: 75*; C: 18; D: -31; E: ·; F: ·
(14) C[C@@H]1CN([C@@H](C)CO)C(=O)Cc2cc(NS(=O)(=O)c3ccc(F)cc3)ccc2O[C@@H]1CN(C)C(=O)Nc1cccc2ccccc12
  A: 3; B: ·; C: ·; D: ·; E: ·; F: ·
(15) Cc1cc(N=Nc2ccccc2C(=O)O)c(C)c(C)c1O
  A: ·; B: -4; C: 22; D: 1; E: 9; F: 81*

# Whole records, looked up by structure.
# CC(C)(C)c1csc(NC(=O)c2c(F)c(F)c(F)c(F)c2F)n1 in the list: UUG fidelity: -14; MC4R barr agon: -1; NALP1 inh: ·; MC4R antag cAMP: 14; HDAC3 inhib: ?; ALR H2O2 inh: 98*
# CCN1CCN(C(=O)c2ccc3c(c2)N(Cc2ccc(C)cc2)CCS3)CC1 in the list: UUG fidelity: 1; MC4R barr agon: 2; NALP1 inh: 22; MC4R antag cAMP: 6; HDAC3 inhib: -14; ALR H2O2 inh: 99*

# Carrying on.
# Letter code – A = UUG fidelity; B = MC4R barr agon; C = NALP1 inh; D = MC4R antag cAMP; E = HDAC3 inhib; F = ALR H2O2 inh
(16) Cc1cc(O)c(C(C)C)cc1N=Nc1ccccc1C(=O)O
  A: -13; B: -3; C: 38*; D: -2; E: ·; F: 54
(17) COc1cc(N=Nc2ccccc2C(=O)O)ccc1O
  A: -16; B: -2; C: 15; D: 11; E: ·; F: 98*
(18) C[C@H](CO)N1C[C@H](C)[C@@H](CN(C)CC2CCCCC2)Oc2ccc(NC(=O)NC3CCCCC3)cc2CC1=O
  A: -6; B: ·; C: ·; D: ·; E: ·; F: ·
(19) C=CCn1sc(=N)c(C#N)c1N
  A: -25; B: 3; C: ·; D: 1; E: 0; F: 99*
(20) COCc1cn(CC[C@@H]2CC[C@@H](NC(=O)Nc3ccc(OC)cc3)[C@@H](CO)O2)nn1
  A: 6; B: ·; C: ·; D: ·; E: ·; F: ·
(21) COc1ccc(CCC(=O)NCC(c2ccco2)N2CCc3ccccc32)cc1 (stereo not given)
  A: -6; B: -1; C: ·; D: -8; E: -3; F: 87*
(22) COc1cc(C(=O)NCC(c2ccco2)N2CCc3ccccc32)cc(OC)c1OC (stereo not given)
  A: ·; B: 2; C: ·; D: 14; E: 2; F: 93*
(23) O=C(NCC(c1ccco1)N1CCc2ccccc21)c1ccccc1 (stereo not given)
  A: -5; B: -2; C: ·; D: 8; E: 5; F: 96*
(24) COc1ccccc1C(=O)NCC(c1ccco1)N1CCc2ccccc21 (stereo not given)
  A: -2; B: -3; C: ·; D: 10; E: -3; F: ·
(25) Cc1ccc(C(=O)NCC(c2ccco2)N2CCc3ccccc32)cc1C (stereo not given)
  A: -10; B: -2; C: ·; D: 6; E: -3; F: 6
(26) CNc1nn(-c2cccc(Cl)c2)nc1N
  A: -20; B: -3; C: 13; D: -4; E: 0; F: 99*
(27) CCN(CCCNC(=O)CC(C(=O)N1CCc2ccccc21)n1ccnc1)c1ccccc1 (stereo not given)
  A: -7; B: -2; C: 12; D: 8; E: 3; F: 99*
